Measurements from ChEMBL document CHEMBL1158463 (J Med Chem, 2009).

Columns and labels:
Homo sapiens [1] = species on record: Homo sapiens; assay: Selectivity for human cloned ORL1 receptor over human cloned delta opioid receptor
Homo sapiens [2] = species on record: Homo sapiens; assay: Selectivity for human cloned ORL1 receptor over human cloned kappa opioid receptor
Homo sapiens [3] = species on record: Homo sapiens; assay: Selectivity for human cloned ORL1 receptor over human cloned mu opioid receptor

Measured: fold change (FC)

CCn1c(=O)n([C@@H]2CCN(CC3CCCCCCC3)C[C@H]2CO)c2ccccc21
600: Homo sapiens [1] | Homo sapiens [2] | Homo sapiens [3]
